Results from ChEMBL document CHEMBL5154885, “Synthesis and biological evaluation of Haspin inhibitors: Kinase inhibitory potency and cellular activity” (Eur J Med Chem, 2022).

Amino acid sequences for entries named in this document (tags omitted). A change or cut given only in a name is not applied to a line headed by its entry.
UniProt P22518: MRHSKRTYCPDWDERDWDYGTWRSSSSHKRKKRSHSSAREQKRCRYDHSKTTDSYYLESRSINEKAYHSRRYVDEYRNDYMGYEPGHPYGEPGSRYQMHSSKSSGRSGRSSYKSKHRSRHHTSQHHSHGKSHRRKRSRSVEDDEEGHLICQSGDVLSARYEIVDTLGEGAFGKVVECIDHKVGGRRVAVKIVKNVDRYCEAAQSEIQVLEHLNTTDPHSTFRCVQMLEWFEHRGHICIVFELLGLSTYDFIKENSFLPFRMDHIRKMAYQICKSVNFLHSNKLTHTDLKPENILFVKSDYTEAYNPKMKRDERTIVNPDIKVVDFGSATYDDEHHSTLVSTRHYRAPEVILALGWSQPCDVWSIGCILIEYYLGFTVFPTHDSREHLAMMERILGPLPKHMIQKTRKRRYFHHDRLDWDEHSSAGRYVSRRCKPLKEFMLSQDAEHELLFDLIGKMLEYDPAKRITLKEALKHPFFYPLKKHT

Key:
[1] = target: Dual specificity protein kinase CLK1 (Mus musculus, UniProt P22518); assay: Inhibition of recombinant mouse CLK1 expressed in bacteria using GRSRSRSRSRSR as substrate in presence of ATP measured after 30 mins by ADP-Glo assay
[2] = target: Dual specificity tyrosine-phosphorylation-regulated kinase 1A (Rattus norvegicus, UniProt Q63470); assay: Inhibition of recombinant rat DYRK1A (1 to 499 residues ) expressed in bacterial expression system using KKISGRLSPIMTEQ as substrate measured after 30 mins in presence of ATP by ADP-Glo assay

CSc1ncc2cc3cnccc3c([N+](=O)[O-])c2n1
IC50 [1]: 221 nM

COc1ncc2cc3cnccc3c([N+](=O)[O-])c2n1
IC50 [2]: 917 nM | IC50 [1]: 445 nM
